Results published in ChEMBL document CHEMBL5725928, “Substituted 4,5,6,7-tetrahydropyrazolo[1,5-A]pyrazine derivatives as casein kinase 1 D/E inhibitors” (2017).

Chains of the proteins cited; added tags and fusions are not shown. Lines headed by an entry give the natural chain unless they say otherwise; changes in a name come on top.
UniProt P49674: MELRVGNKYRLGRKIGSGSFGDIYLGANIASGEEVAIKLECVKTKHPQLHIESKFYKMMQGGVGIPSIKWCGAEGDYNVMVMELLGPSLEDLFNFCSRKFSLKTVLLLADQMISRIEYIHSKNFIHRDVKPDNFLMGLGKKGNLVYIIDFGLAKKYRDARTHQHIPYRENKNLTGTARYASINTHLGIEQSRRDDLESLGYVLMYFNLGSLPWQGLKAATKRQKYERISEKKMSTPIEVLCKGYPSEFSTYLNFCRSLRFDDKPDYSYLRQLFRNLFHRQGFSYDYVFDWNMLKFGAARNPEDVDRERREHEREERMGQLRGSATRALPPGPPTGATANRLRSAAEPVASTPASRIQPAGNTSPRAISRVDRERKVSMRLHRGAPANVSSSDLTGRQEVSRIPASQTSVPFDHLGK

Target: Casein kinase I isoform epsilon (Homo sapiens, UniProt P49674)
Experiment: IC50 values were derived by non-linear regression analysis.

In the case of `CC(C)(C)[C@H]1CN(C(=O)Nc2ccc(C#N)cc2)Cc2c(C(N)=O)c(-c3ccc(F)c(Cl)c3)nn21`, the IC50 is reported as < 10 nM.
